# Measured values reported in patent US8324158B2, “Methods for inhibiting CLC-2 channel with GATX2” (Georgia Tech Research Corporation, priority 2006, dated 2012).
# Legend:
# [1] = molecular target: T1, ClC-2 (Oryctolagus cuniculus, UniProt P51789); experiment: Two-electrode voltage clamp (TEVC) of ClC-2 currents in Xenopus oocytes; type: cell-based, rabbit; conditions: 0.1 mg/mL equivalent
# T1 construct: expressed in transfected cells; host or cells: Xenopus oocytes injected with cRNA (construct in pSport1, gift of H. C. Hartzell)
# T1 sequence (P51789 1-898): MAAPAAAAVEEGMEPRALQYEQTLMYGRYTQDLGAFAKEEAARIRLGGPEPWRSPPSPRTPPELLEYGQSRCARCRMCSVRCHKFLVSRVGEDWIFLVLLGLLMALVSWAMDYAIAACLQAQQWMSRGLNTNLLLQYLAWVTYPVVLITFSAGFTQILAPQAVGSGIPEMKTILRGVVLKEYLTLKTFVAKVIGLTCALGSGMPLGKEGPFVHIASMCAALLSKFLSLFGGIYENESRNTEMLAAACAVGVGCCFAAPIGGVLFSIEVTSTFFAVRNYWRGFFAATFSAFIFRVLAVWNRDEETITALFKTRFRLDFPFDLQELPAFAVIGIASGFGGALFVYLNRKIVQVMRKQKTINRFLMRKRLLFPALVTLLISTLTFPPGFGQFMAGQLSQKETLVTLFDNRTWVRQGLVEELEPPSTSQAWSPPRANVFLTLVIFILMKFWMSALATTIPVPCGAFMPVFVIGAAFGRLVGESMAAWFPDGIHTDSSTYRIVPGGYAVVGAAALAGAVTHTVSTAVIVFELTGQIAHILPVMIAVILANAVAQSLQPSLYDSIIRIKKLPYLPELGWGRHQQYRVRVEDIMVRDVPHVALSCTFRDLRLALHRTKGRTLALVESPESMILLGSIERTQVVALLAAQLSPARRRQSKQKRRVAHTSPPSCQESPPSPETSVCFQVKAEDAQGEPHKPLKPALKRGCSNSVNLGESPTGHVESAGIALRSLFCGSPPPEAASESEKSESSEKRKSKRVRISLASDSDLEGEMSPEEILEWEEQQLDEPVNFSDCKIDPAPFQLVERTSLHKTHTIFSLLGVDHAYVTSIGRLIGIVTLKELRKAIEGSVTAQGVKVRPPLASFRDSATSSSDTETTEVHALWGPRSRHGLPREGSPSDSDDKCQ
# [2] = molecular target: T1, ClC-2; experiment: Inside-out multi-channel patch recording of ClC-2 window current, toxin backfilled into pipette; type: cell-based, rabbit
# Description: Xenopus oocytes were isolated as previously described and incubated at 18° C. in a modified Liebovitz's L-15 medium (pH 7.5) with a cocktail of antibiotics (gentarnicin, penicillin, streptomycin) and HEPES. CRNA was prepared from rabbit ClC-2 using a construct in pSport1, donated by H. C. Hartzell (Emory University, Atlanta, Ga.). For two-electrode voltage clamp experiments (TEYC), oocytes were injected with 2.5-25 ng of ClC-2 cRNA, 0.06-1 ng Sh13-IR cRNA, or 50-100 ng GABAC-rho subunit cRNA. For patch recordings, oocytes were injected with 0.5-2 ng ClC-2 cRNA. Data were collected at room temperature 2-5 days post injection. Methods for animal handling are in accordance with the NIH guidelines and the protocol was approved by the Animal Use and Care Committee of the Georgia Institute of Technology.
# (§1) Inside-out multi-channel and single channel patch clamp experiments were performed as previously described (Fuller, M. D. et al. (2005) Biophys. J. 89, 3960-3975). All data were recorded to DAT tape at 10 kHz and were subsequently filtered at 100 Hz and acquired by computer at 500 Hz. For inside-out patches in the presence of toxin, the toxin was backfilled into the pipette and allowed to diffuse to the surface of the patch. Unless otherwise stated, all single channel traces depicted in the figures were recorded at VM=−100 mV. For all electrophysiological data shown, the horizontal dashed line indicates the zero-current level.
# For experiments to construct a dose-response curve using inhibition of ClC-2 in excised, inside-out multi-channel patches, the pipette was backfilled with varying concentrations of synthetic toxin. The pipette was backfilled in such a way as to allow 10 minutes of control recording (at VM=−100 mV or 60 mV), followed by 10 minutes of recording in the presence of GaTx2. The average window current from five separate four-minute windows in both control and experimental conditions was calculated.
# [3] = molecular target: T1, ClC-2; experiment: Single channel patch clamp of ClC-2 (one or two channels in patch); type: cell-based, rabbit; conditions: 20 pM; −100 mV
# Description: as §1
# Peptide toxins may either inhibit channels by acting as pore blockers, which fully or partially occlude the pore, or by acting as gating modifiers, making it more difficult for the channel to open (McDonough, S. I. (2003) in Calcium Channel Pharmacology, ed. McDonough, S. I. Kluwer-Academic-Plenum Publishing, New York). […] In the presence of GaTx2, the single protopore amplitude at −100 mV was unchanged from control (0.25±0.01 pA vs, 0.26±0.01 pA, n 3, p=0.45) (FIG. 4A) as measured from the difference between O1 and O2 from the amplitude histograms created from 2-minute sections of record in the absence and presence of toxin. […]
# [4] = system: mouse; conditions: injected into mouse brain; cited from earlier work
# [5] = system: insects; conditions: injected into insects; cited from earlier work
smiles,measurement,setting,value
CC[C@H](C)[C@H](NC(=O)[C@@H]1CCCN1C(=O)[C@H](CCC(=O)O)NC(=O)[C@@H]1CSSC[C@@H]2NC(=O)[C@H](Cc3c[nH]cn3)NC(=O)[C@H](CC(=O)O)NC(=O)[C@@H]3CCCN3C(=O)[C@@H]3CSSC[C@H](NC(=O)[C@H](CCCCN)NC(=O)[C@H](CC(=O)O)NC(=O)[C@H](CC(N)=O)NC(=O)[C@H](CC(=O)O)NC(=O)[C@H](CSSC[C@H](NC(=O)[C@H](CO)NC(=O)[C@@H](N)C(C)C)C(=O)N[C@@H](CCC(=O)O)C(=O)N[C@@H](CC(=O)O)C(=O)N3)NC(=O)[C@H](CCCCN)NC(=O)[C@H](C)NC(=O)[C@H](CCCNC(=N)N)NC(=O)[C@H](C)NC(=O)[C@H](CCCCN)NC(=O)[C@H](CCC(N)=O)NC(=O)[C@H]([C@@H](C)O)NC(=O)[C@H](CO)NC2=O)C(=O)N[C@@H](C(C)C)C(=O)N1)C(=O)O [GaTx2],inhibition of ClC-2 currents,[1],64.2±5.3%
same,Kd,[2],12 pM
same,inhibition of ClC-2 current,"[2]; 2 pM toxin, VM=−100 mV",4.0±9.9%
same,decrease of average window current,"[2]; 2 nM backfilled into pipette, VM=−100 mV",80.4±2.0%
same,inhibition of ClC-2 current,"[2]; VM=−60 mV, 2 pM synthetic GaTx2 (the same sentence prints 2 μM toxin)",41.4±4.1%
same,reduction of channel activity NPO/N,[3],59.5±8%
same,lethal effects,[4],not shown to have any lethal effects
same,lethal effects,[5],not shown to have any lethal effects
